{"source": "patent US6913877B1", "about": "(priority 2000, dated 2005)", "system": "melanophores"}
{"smiles": "COc1ccc(CCN(C)CCCC(C#N)(c2ccc(OC)c(OC)c2)C(C)C)cc1OC", "note": "(stereo not shown) [Verapamil]", "values": [{"measurement": "melanophore response", "value": "does not alter melanophores"}]}
